Sequences of proteins named here, by UniProt entry; tags and fusion partners are left off. A change or cut given only in a name is not applied to a line headed by its entry.
UniProt P49759: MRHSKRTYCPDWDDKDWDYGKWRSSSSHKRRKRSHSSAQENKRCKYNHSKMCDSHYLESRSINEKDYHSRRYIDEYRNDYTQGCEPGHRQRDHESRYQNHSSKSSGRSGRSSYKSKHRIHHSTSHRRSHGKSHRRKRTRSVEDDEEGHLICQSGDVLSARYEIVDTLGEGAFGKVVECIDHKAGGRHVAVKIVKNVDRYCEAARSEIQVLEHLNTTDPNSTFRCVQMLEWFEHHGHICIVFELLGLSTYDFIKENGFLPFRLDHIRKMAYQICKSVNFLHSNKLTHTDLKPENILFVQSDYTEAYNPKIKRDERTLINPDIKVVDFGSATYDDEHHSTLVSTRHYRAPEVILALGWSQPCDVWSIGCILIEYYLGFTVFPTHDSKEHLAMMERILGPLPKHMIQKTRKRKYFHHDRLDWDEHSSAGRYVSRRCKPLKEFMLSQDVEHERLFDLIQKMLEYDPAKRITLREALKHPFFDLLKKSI
UniProt P49760, whole entry, species assumed: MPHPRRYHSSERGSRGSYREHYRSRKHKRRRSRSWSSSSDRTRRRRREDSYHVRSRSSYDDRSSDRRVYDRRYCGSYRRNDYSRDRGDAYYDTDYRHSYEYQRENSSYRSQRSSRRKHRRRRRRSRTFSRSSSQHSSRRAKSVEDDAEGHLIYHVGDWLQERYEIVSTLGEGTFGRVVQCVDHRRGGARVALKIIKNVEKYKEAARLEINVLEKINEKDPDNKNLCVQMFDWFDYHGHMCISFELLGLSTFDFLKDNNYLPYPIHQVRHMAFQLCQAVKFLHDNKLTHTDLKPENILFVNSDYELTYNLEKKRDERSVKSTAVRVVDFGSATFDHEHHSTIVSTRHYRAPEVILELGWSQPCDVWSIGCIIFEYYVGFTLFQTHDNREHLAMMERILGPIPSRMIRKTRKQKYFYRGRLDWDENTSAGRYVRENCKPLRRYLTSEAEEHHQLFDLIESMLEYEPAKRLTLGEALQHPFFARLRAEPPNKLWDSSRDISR
UniProt P49761, whole entry, species assumed: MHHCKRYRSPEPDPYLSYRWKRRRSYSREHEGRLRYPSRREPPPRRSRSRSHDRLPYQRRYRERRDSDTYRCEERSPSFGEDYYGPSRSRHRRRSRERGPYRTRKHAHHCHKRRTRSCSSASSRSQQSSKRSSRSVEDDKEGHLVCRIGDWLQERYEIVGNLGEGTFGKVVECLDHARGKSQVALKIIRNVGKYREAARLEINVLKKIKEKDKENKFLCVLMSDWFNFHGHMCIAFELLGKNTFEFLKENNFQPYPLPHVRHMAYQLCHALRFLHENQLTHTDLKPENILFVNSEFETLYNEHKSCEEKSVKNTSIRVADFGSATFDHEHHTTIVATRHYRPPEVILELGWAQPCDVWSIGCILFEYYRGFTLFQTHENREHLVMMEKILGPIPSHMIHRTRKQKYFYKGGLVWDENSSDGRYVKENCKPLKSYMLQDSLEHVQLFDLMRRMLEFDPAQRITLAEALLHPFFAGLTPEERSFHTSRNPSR
UniProt Q9HAZ1, whole entry, species assumed: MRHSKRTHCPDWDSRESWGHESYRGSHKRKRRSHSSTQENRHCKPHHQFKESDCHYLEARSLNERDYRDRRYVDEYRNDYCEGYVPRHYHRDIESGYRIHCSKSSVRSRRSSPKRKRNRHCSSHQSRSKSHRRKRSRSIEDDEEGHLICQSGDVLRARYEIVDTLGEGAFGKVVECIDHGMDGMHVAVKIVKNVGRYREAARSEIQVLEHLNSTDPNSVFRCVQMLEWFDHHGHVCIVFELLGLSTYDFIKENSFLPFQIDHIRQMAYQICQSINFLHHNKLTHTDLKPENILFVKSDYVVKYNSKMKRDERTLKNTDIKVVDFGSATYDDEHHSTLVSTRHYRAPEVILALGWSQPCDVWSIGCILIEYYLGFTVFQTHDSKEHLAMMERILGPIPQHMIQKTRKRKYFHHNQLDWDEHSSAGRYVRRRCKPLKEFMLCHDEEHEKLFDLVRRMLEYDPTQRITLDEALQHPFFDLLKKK

According to patent US8816089B2, “Methods for controlling SR protein phosphorylation, and antiviral agents whose active ingredients comprise agents that control SR protein activity” (priority 2003, dated 2014):

What was measured:
Details in all cases: final concentration of 10 μM
CLK1 = CLK1 (Homo sapiens, UniProt P49759)
CLK2 = CLK2 (Homo sapiens, UniProt P49760)
CLK3 = CLK3 (Homo sapiens, UniProt P49761)
CLK4 = CLK4 (Homo sapiens, UniProt Q9HAZ1)

O=C(Nc1cc(C(F)(F)F)ccc1N1CCCCC1)c1ccncc1 [Compound No. 340, N-[2-(1-piperidinyl)-5-(trifluoromethyl)phenyl]isonicotinamide]
did not exhibit an inhibitory effect: inhibitory effect on CLK1 (CLK1) | inhibitory effect on CLK2 (CLK2) | inhibitory effect on CLK3 (CLK3) | inhibitory effect on CLK4 (CLK4)
